Source: ChEMBL document CHEMBL1134366, “Enantiospecific synthesis and pharmacological evaluation of a series of super-potent, conformationally restricted 5-HT(2A/2C) receptor agonists” (J Med Chem, 2001)

Amino acid sequences for entries named in this document (tags omitted).
UniProt P14842, whole entry: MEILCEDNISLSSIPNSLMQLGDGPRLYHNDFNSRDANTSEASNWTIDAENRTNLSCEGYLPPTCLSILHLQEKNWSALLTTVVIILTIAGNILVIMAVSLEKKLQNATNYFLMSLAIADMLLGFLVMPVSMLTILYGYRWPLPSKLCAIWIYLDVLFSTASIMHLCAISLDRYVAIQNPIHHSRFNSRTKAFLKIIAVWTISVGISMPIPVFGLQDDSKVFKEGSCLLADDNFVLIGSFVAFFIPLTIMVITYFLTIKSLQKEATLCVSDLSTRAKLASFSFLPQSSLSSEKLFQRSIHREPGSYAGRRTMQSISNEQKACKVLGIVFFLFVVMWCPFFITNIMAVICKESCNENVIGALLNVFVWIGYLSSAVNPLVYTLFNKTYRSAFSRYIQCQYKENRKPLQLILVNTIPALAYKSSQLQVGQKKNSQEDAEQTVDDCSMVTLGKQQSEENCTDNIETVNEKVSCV

What was measured:
[1] = target: T1, 5-hydroxytryptamine receptor 2A (Rattus norvegicus, UniProt P14842); experiment: Ability to stimulate phosphoinositide hydrolysis in NIH3T3 cells expressing the 5-hydroxytryptamine 2A receptor; format: cell-based
[2] = target: T2, 5-hydroxytryptamine receptor 2C (Rattus norvegicus, UniProt P08909); experiment: Binding affinity at cloned rat 5-hydroxytryptamine 2C receptor using [3H]DOI as radioligand
T2 sequence (P08909 whole entry): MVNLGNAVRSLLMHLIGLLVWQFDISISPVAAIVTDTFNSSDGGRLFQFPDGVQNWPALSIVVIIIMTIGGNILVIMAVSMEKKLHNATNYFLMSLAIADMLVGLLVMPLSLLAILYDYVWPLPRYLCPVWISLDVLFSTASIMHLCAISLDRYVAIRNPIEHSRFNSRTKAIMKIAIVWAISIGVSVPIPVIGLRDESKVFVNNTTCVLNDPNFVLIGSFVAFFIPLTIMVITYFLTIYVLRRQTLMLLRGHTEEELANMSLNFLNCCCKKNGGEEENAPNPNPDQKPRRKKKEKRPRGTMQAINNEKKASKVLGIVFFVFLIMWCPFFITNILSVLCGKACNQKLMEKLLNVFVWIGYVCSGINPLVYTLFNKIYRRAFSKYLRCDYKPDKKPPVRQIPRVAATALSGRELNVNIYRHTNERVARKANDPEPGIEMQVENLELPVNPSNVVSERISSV
Procedure, shortened: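 Competition binding using harvested, frozen NIH-3T3 cells stably expressing rat 5-HT2C. Buffer 50 mM Tris, 0.5 mM EDTA, 10 mM MgCl2, pH 7.4. Incubated 60 min at 25 °C, then rapid filtration onto polyethylenimine-treated GF/B filters and scintillation counting. Nonspecific binding defined with 10 µM mianserin in the saturation assays.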

[3] = target: T1, 5-hydroxytryptamine receptor 2A; experiment: Binding affinity at cloned rat 5-hydroxytryptamine 2A receptor using [3H]DOB as radioligand
Procedure, shortened: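 Competition binding using harvested, frozen NIH-3T3 cells stably expressing rat 5-HT2A, serum-starved 5 h before harvest. 1.0 nM [3H]DOB in 50 mM Tris, 0.5 mM EDTA, 10 mM MgCl2, pH 7.4. Incubated 60 min at 25 °C, then rapid filtration onto GF/B filters pre-soaked in 0.3% polyethylenimine, and scintillation counting. Nonspecific binding defined with 10 µM cinanserin in the saturation assays.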

`COc1cc(CC(C)N)c(OC)cc1Br` (stereo not drawn) [BROLAMFETAMINE] was tested. Which pEC50 [1] did it give?
The pEC50 was 7.14.

And the pKi [2]?
The pKi was 8.55.

And the pKi [3]?
The pKi was 8.66.

pEC50, pKi: −log10 of the molar value.
